{"source": "paper PMC6852655", "about": "(International Journal of Cancer, 2019)", "key": {"[1]": {"system": "PC-3 xenografts", "test": "Experimental in vivo therapy", "parameters": "species or system BALB/c nu/nu mice", "settings": "6 cycles iv every second day; n=11-12"}, "[2]": {"system": "PC-3 cells", "settings": "postirradiation treatment; cited from earlier work"}}, "data": [{"substance": "trastuzumab: anti-HER2 monoclonal antibody [reference compound]", "values": [{"measurement": "Median survival compared with controls", "setting": "[1]", "result": "same median survival as the mice in vehicle group"}, {"measurement": "PC-3 cell survival in vitro", "setting": "[2]", "result": "twofold decrease"}]}]}
